Measured values taken from patent publication US12098175B2, “Peptide inhibitors targeting the CXCL12/HMGB1 interaction and uses thereof” (INSTITUTE FOR RESEARCH IN BIOMEDICINE, priority 2019, dated 2024).

Chains of the proteins cited; added tags and fusions are not shown. Residues count along the entry.
UniProt P48061, 22-93, species assumed: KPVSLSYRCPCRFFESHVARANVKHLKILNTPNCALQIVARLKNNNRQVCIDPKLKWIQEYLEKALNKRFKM

Tests used:
human monocytes = assay: Toxicity, AnnexinV-FITC/Propidium Iodide flow cytometry, human monocytes; format: cell-based; details: 100 μM, 2 h
Method: (§1) In addition, toxicity of HBP08 was tested. Toxicity was assessed in the murine 300.19 PreB cell line expressing the human CXCR4, and on human monocytes. Cells were incubated for 2 h in the presence of HBP08 at 100 μM, stained by AnnexinVFITC/Propidium Iodide, and cell viability was analyzed by flow cytometry in comparison to the untreated control, following manufacturer's instructions.

CXCL12 [1] = target: T1, CXCL12 (Homo sapiens, UniProt P48061); assay: In vitro chemotaxis: migration induced by CXCL12 alone, 300.19 PreB cells expressing human CXCR4; format: cell-based, murine; details: peptides at 100 μM; CXCL12 1 nM; 300.19 PreB cells with human CXCR4
Method: Further experiments were performed with CXCL12 alone to identify peptides affecting cell migration induced by CXCL12 alone. To this end, experiments were performed in a similar manner as described in Example 2. Accordingly, murine 300.19 PreB cells stably transfected with human CXCR4 were used as described in Example 2.
Briefly, chemotaxis was performed using Boyden chambers with 5 μm pore membranes. Murine 300.19 PreB cells stably transfected with the human CXCR4 were allowed to migrate for 90 min at 37° C. in response to a sub-optimal CXCL12 concentration (1 nM). 200 μM glycyrrhizin were used as positive control.

[2] = tested on: murine 300.19 PreB cell line expressing the human CXCR4; assay: Toxicity, AnnexinV-FITC/Propidium Iodide flow cytometry, 300.19 PreB cells; format: cell-based; details: 100 μM, 2 h; murine 300.19 PreB cells expressing human CXCR4
Method: as §1

CXCL12 [3] = target: T1, CXCL12; assay: In vitro chemotaxis: migration induced by CXCL12 alone, primary human monocytes; format: cell-based; details: peptide at 100 μM, CXCL12 1 nM
Method: In a further experiment, CXCL12-induced cell migration was assessed, similar to Example 3, but using human monocytes as described above. Briefly, chemotaxis was performed using Boyden chambers with 5 μm pore membranes. Freshly isolated human monocytes were allowed to migrate for 90 min at 37° C. in response to a sub-optimal CXCL12 concentration (1 nM). 200 μM glycyrrhizin were used as positive control.

CC[C@H](C)[C@H](NC(=O)[C@H](Cc1c[nH]c2ccccc12)NC(=O)[C@H](CCCNC(=N)N)NC(=O)[C@H](CCC(=O)O)NC(=O)[C@H](Cc1ccc(O)cc1)NC(=O)[C@H](Cc1cnc[nH]1)NC(=O)[C@H](Cc1ccc(O)cc1)NC(=O)CN)C(=O)N[C@@H](Cc1cnc[nH]1)C(=O)O [HBP08]
Toxicity (cell viability) (human monocytes): no toxicity
Effect on cell migration induced by CXCL12 alone (CXCL12 [1]): do not affect CXCL12-induced cell migration
Toxicity (cell viability) [2]: no toxicity
Effect on migration induced by CXCL12 alone (CXCL12 [3]): without altering the migration induced by CXCL12 alone
